# Results: PubChem BioAssay AID602261 (Sanford-Burnham Center for Chemical Genomics, 2012)
# Amino acid sequences for entries named in this document (tags omitted).
# UniProt P49327, whole entry: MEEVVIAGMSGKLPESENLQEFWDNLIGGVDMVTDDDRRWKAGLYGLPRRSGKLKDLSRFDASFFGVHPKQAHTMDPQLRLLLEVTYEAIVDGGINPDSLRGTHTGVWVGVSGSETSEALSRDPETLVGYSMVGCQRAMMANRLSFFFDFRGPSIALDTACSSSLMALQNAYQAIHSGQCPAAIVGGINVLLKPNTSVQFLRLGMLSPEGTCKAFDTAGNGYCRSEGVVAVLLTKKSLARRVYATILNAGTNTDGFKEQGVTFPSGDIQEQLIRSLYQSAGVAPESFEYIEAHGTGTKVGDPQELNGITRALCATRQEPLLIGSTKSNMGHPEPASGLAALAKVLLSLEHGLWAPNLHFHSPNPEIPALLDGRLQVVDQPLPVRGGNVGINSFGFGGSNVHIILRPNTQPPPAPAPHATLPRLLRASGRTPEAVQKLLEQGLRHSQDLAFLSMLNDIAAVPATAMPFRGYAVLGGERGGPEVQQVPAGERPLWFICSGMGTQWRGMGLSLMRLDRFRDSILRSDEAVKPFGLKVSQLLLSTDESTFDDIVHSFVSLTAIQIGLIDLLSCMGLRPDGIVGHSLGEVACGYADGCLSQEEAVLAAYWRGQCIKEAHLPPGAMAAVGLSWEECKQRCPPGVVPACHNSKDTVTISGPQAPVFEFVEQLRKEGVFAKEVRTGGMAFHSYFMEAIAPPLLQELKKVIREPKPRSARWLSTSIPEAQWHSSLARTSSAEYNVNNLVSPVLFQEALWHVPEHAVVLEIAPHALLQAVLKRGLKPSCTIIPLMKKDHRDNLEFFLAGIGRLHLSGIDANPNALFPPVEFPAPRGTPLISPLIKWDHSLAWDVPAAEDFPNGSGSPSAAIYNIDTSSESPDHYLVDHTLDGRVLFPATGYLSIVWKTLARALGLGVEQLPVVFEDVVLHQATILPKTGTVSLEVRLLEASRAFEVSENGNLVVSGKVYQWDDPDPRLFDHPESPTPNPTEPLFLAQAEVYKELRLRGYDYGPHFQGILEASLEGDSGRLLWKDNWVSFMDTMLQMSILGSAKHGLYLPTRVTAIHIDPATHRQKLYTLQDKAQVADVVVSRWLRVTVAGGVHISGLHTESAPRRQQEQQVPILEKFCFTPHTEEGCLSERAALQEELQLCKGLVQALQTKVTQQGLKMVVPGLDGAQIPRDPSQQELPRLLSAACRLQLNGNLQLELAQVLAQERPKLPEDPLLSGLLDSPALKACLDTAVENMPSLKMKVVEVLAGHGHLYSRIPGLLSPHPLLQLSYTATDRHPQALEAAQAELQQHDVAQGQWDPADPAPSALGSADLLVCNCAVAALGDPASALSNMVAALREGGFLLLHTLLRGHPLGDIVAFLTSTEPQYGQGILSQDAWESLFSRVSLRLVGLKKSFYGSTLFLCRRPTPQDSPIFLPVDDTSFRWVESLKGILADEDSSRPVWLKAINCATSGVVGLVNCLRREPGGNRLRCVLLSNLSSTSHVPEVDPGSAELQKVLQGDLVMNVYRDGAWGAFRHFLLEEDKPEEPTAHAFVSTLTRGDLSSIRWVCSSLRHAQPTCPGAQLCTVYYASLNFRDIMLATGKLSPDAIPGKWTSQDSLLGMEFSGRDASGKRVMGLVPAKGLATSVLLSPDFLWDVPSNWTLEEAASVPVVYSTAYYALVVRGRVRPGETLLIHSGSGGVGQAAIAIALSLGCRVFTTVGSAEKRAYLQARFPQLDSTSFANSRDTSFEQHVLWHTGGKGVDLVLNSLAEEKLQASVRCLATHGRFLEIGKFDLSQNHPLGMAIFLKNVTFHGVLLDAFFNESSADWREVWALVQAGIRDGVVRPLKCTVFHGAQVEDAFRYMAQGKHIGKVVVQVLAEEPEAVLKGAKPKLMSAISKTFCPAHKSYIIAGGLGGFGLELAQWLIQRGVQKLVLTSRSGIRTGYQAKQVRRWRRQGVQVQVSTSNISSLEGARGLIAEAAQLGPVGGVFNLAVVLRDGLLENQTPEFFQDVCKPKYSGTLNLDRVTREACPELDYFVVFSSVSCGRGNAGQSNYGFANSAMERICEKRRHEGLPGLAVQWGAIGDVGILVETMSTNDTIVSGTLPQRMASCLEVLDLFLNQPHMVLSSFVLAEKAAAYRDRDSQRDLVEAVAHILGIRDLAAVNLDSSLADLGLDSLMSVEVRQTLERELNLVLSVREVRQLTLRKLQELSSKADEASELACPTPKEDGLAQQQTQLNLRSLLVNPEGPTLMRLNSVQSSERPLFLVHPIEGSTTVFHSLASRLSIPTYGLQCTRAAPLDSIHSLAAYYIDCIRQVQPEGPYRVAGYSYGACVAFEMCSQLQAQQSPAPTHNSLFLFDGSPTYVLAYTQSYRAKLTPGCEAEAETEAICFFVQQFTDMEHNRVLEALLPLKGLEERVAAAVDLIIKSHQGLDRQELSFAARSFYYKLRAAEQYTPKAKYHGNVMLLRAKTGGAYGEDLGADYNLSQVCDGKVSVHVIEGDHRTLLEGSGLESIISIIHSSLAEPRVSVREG
# This is a selection; strong and weak results do not stand in their true shares. Some salts and complexes are drawn in separate pieces, as the source files them; their charges need not balance. Calls of active or inactive are those of the source.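 Rule for the calls: active = compounds whose normalised, plate-corrected inhibition of enzyme fluorescence in the single-dose primary screen is 50% or more; inactive = the rest.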
# Target: Fatty acid synthase (Homo sapiens) (UniProt P49327)
# Assay: inhibition of human FAS-TE enzyme activity – biochemical, fluorescence intensity, uHTS, primary screen (AID 602261);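 note: 0% = DMSO with enzyme and 100% = substrate without enzyme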
# Settings: recombinant FAS-TE, OMFH fluorogenic substrate, fluorescence endpoint; at 15 µM; active compounds read high
row,SMILES,inhibition
1,COc1ccccc1-c1ccccn1.O=[N+]([O-])c1cc([N+](=O)[O-])c(O)c([N+](=O)[O-])c1,inactive: 0%
2,CCN(CC)CCCOC(=O)C(O)(c1ccccc1)c1ccccc1,inactive: -5.5%
3,COc1ccccc1OP(C)(=O)Nc1ccc(C)cc1 (centres undefined),inactive: -6.6%
4,Cc1ccc(NP(C)(=O)Oc2ccccc2)c(C)c1 (centres undefined),inactive: -9.8%
5,CCOC(=O)c1ccc(NP(C)(=O)Oc2ccccc2)cc1 (centres undefined),inactive: -7.1%
6,Cc1cc(C)cc(OP(C)(N)=O)c1 (centres undefined),inactive: -2.5%
7,COc1ccccc1OP(C)(=O)Nc1cc(Cl)ccc1C (centres undefined),inactive: -2.7%
8,COc1ccc(OP(C)(=O)Nc2cccc(F)c2)cc1 (centres undefined),inactive: -6.3%
9,O=[N+]([O-])c1cc([N+](=O)[O-])c(Nc2cccnc2)c([N+](=O)[O-])c1,inactive: -4.2%
10,O=[N+]([O-])c1ccc2c(c1)C=Nc1ccccc1O2,inactive: 9.3%
11,CC(C)(C)c1ccc(OP(C)(=O)Nc2ccc(SC(F)(F)F)cc2)cc1 (centres undefined),inactive: 18.7%
12,Cc1cccc(C)c1OP(C)(N)=O (centres undefined),inactive: -3.8%
13,CP(=S)(Nn1cnnc1)Oc1ccccc1 (centres undefined),inactive: -6.2%
14,CP(=O)(Nc1ccccc1Br)Oc1ccccc1 (centres undefined),inactive: -5.1%
15,COc1ccccc1OP(C)(=O)Nc1ccccc1 (centres undefined),inactive: -10.7%
16,O=[N+]([O-])c1cc([N+](=O)[O-])c(O)c([N+](=O)[O-])c1.c1ccc(Oc2ccncc2)cc1,inactive: -0.2%
17,CCOC(=O)c1ccc(NP(C)(=O)Oc2ccc(OC)cc2)cc1 (centres undefined),inactive: -12%
18,CCOP(C)(=S)SCC(=O)NC(C)C(=O)O (centres undefined),inactive: -4.5%
19,CP(=O)(Nc1ccccn1)Oc1ccc(Cl)cc1 (centres undefined),inactive: -5.5%
20,CP(=O)(Nc1ccc(SC(F)(F)F)cc1)Oc1ccc(Cl)cc1 (centres undefined),active: 58.1%
21,Cc1cccc(C)c1OP(C)(=O)Nc1ccc(SC(F)(F)F)cc1 (centres undefined),inactive: 5.3%
22,Cc1ccc(Nc2c([N+](=O)[O-])cc([N+](=O)[O-])cc2[N+](=O)[O-])cc1,inactive: 8%
23,CP(=O)(Oc1ccccc1)OC(c1ccccc1)C(F)(F)F (centres undefined),inactive: 1.7%
24,CP(=O)(NC(=O)Nc1ccccc1)Oc1ccccc1 (centres undefined),inactive: -9.7%
25,CCc1ccc(OP(C)(=O)N2CCN(c3ccc([N+](=O)[O-])cc3)CC2)cc1 (centres undefined),inactive: 41.4%

row,SMILES,inhibition
1,Cc1cc(C)cc(OP(C)(=O)Nc2ccc(SC(F)(F)F)cc2)c1 (centres undefined),inactive: 23.4%
2,O=[N+]([O-])c1cc([N+](=O)[O-])c(-c2cnn(-c3ccccc3)c2)c([N+](=O)[O-])c1,inactive: -19.5%
3,Cc1nc2ccc3ccccc3c2s1.O=[N+]([O-])c1cc([N+](=O)[O-])c(O)c([N+](=O)[O-])c1,inactive: 3.8%
4,O=[N+]([O-])c1cc([N+](=O)[O-])c(-n2nnc3ccccc32)c([N+](=O)[O-])c1,inactive: -9.7%
5,CN(Cc1cccnc1)C(=O)COc1ccc(Cl)c(Cl)c1.O=[N+]([O-])c1cc([N+](=O)[O-])c(O)c([N+](=O)[O-])c1,inactive: 2.3%
6,CN1CCCCC1COC(=O)C1(O)c2ccccc2CCc2ccccc21 (centres undefined),inactive: -4.3%
7,COc1ccccc1OP(C)(=O)Nc1c(C)cccc1C (centres undefined),inactive: -4.8%
8,COc1ccc(-c2ccccn2)cc1.O=[N+]([O-])c1cc([N+](=O)[O-])c(O)c([N+](=O)[O-])c1,inactive: 1.8%
9,CCCOc1ccc(NP(C)(=O)Oc2ccc(Cl)cc2)cc1 (centres undefined),inactive: 7.9%
10,CP(=O)(Nc1ccc(SC(F)(F)F)cc1)Oc1ccccc1 (centres undefined),inactive: 3%
11,CC1=C2N=C(C=C3N=C(C(C)=C4[N-][C@@](C)([C@@H]5N=C1[C@](C)(CCC(=O)NC[C@@H](C)OP(=O)([O-])O[C@H]1[C@@H](O)[C@@H](n6cnc7cc(C)c(C)cc76)O[C@@H]1CO)[C@H]5CC(N)=O)[C@@](C)(CC(N)=O)[C@@H]4CCC(N)=O)[C@@](C)(CC(N)=O)[C@@H]3CCC(N)=O)C(C)(C)[C@@H]2CCC(N)=O.[C-]#N.[Co+3],inactive: -0.6%
12,O=[N+]([O-])c1cc([N+](=O)[O-])c(Nc2nnnn2CCO)c([N+](=O)[O-])c1,inactive: -3.1%
13,CCOC(=O)C(CC)C1=NC(C)(C)Cc2ccccc21.O=[N+]([O-])c1cc([N+](=O)[O-])c(O)c([N+](=O)[O-])c1 (centres undefined),inactive: 0.5%
14,CC1=NCCc2c1[nH]c1ccccc21.O=[N+]([O-])c1cc([N+](=O)[O-])c(O)c([N+](=O)[O-])c1,inactive: -8.3%
15,O=C(O)c1cccc(Nc2c([N+](=O)[O-])cc([N+](=O)[O-])cc2[N+](=O)[O-])c1,inactive: 0.2%
16,Cc1ccc(C)c(NP(C)(=O)Oc2ccccc2)c1 (centres undefined),inactive: -16.7%
17,Cc1cc(C)cc(OP(C)(=O)Nc2ccccn2)c1 (centres undefined),inactive: -7.1%
18,CP(=O)(Nc1cccc(Br)c1)Oc1ccccc1 (centres undefined),inactive: 1.7%
19,COc1ccccc1OP(C)(=O)Nc1cccc(Br)c1 (centres undefined),inactive: -4.3%
20,CCOC(=O)c1ccc(NP(C)(=O)Oc2cc(C)cc(C)c2)cc1 (centres undefined),inactive: -4%
21,Cc1cc(C)cc(OP(C)(=O)Nc2ccc(C)cc2C)c1 (centres undefined),inactive: -3.9%
22,O=C(OC1CN2CCC1CC2)c1ccc([N+](=O)[O-])cc1 (centres undefined),inactive: -0.3%
23,O=C(OCCN1CCN(CCOCc2ccccc2)CC1)C(O)(c1ccccc1)c1ccccc1,inactive: -7.6%
24,COc1ccc2c(c1O)-c1c(O)c(OC)cc3c1[C@H](C2)[N+](C)(C)CC3.O=[N+]([O-])c1cc([N+](=O)[O-])c([O-])c([N+](=O)[O-])c1[O-],inactive: -10.2%
25,O=[N+]([O-])c1cc([N+](=O)[O-])c(Nc2ccc(Cl)cc2)c([N+](=O)[O-])c1,inactive: 7.6%

row,SMILES,inhibition
1,CP(=O)(Nc1ccccc1F)Oc1ccccc1 (centres undefined),inactive: -6.5%
2,CC(C)c1ccc(OP(C)(=O)Nc2ccc(SC(F)(F)F)cc2)cc1 (centres undefined),inactive: 28.7%
3,Cc1c([N+](=O)[O-])cc([N+](=O)[O-])c(Br)c1[N+](=O)[O-],inactive: 0.6%
4,CCN(CC)CCCOC(=O)C(O)(c1ccccc1)C1CCCCC1 (centres undefined),inactive: 0.1%
5,CP(=O)(Nc1ccccc1)Oc1ccc(F)cc1 (centres undefined),inactive: -5.4%
6,CCCCCOc1ccc(NP(C)(=O)Oc2ccc(Cl)cc2Cl)cc1 (centres undefined),inactive: 33.5%
7,O=[N+]([O-])c1cc([N+](=O)[O-])c(OC2CCCCC2O)c([N+](=O)[O-])c1 (centres undefined),inactive: -1.5%
8,CCN(CC)CCCNc1ccccc1[N+](=O)[O-].O=[N+]([O-])c1cc([N+](=O)[O-])c(O)c([N+](=O)[O-])c1,inactive: 0.6%
9,CCOC(=O)c1ccc(NP(C)(=O)Oc2ccc(F)cc2)cc1 (centres undefined),inactive: -8.6%
10,COc1ccc(OP(C)(=O)Nc2ccc(SC(F)(F)F)cc2)cc1 (centres undefined),inactive: 14.9%
11,O=[N+]([O-])c1ccc(OP2(=O)COCCO2)cc1 (centres undefined),inactive: -2.2%
12,O=[N+]([O-])c1cc([N+](=O)[O-])c(NCC2CCS(=O)(=O)C2)c([N+](=O)[O-])c1 (centres undefined),inactive: -1.2%
13,Cc1cc(-c2cccc3ccccc23)c(C)cn1.O=[N+]([O-])c1cc([N+](=O)[O-])c(O)c([N+](=O)[O-])c1,inactive: 10.6%
14,Cc1c(C(c2ccc3c(c2)OCO3)c2c(C)n(C)n(-c3ccccc3)c2=O)c(=O)n(-c2ccccc2)n1C.O=[N+]([O-])c1cc([N+](=O)[O-])c(O)c([N+](=O)[O-])c1,inactive: -6.7%
15,COc1ccc(OP(C)(=O)Nc2cccc(Br)c2)cc1 (centres undefined),inactive: 2.9%
16,CN(C)CCOC(=O)C(O)(c1ccccc1)C1CCCCC1 (centres undefined),inactive: -5.6%
17,COc1ccc(NP(C)(=O)Oc2ccccc2OC)cc1 (centres undefined),inactive: -2.3%
18,CP(=O)(Nc1ccc2c(c1)OCCO2)Oc1ccccc1 (centres undefined),inactive: -1.9%
19,Cc1ccccc1NP(C)(=O)Nc1ccccc1C,inactive: -6.9%
20,O=[N+]([O-])c1cc([N+](=O)[O-])c(C(F)(F)F)c([N+](=O)[O-])c1O,inactive: 19.2%
21,CP(=O)(Nc1ccc(SC(F)(F)F)cc1)Oc1ccc(F)cc1 (centres undefined),inactive: 16.6%
22,CCOP(C)(=S)SCC(=O)NC(C)(CC)C(=O)O (centres undefined),inactive: -3.6%
23,COc1ccccc1OP(C)(=O)Nc1ccccc1Br (centres undefined),inactive: -2.7%
24,CC(C)(C)c1ccc(OP(C)(=O)O)cc1,inactive: -6.3%
25,CP(=O)(Nc1ccc(Cl)cc1)Oc1ccc(F)cc1 (centres undefined),inactive: 0.9%

row,SMILES,inhibition
1,CN(C)C(=O)c1c([N+](=O)[O-])cc([N+](=O)[O-])cc1[N+](=O)[O-],inactive: -5.7%
2,CCN(CC)CC(O)COC(=O)C(O)(c1ccccc1)C1CCCCC1 (centres undefined),inactive: -1.1%
3,COc1ccc(OP(C)(=O)Nc2ccc(Br)cc2)cc1 (centres undefined),inactive: -2.1%
4,COc1ccccc1OP(C)(=O)Nc1c(C)n(C)n(-c2ccccc2)c1=O (centres undefined),inactive: -15%
5,O=C(OCCCN1CCCC1)C(O)(c1ccccc1)C1CCCCC1 (centres undefined),inactive: -5%
6,CP(=O)(Oc1ccccc1)N1CCOC1=O (centres undefined),inactive: -7.2%
7,CCc1ccc(OP(C)(=O)Nc2cccnc2)cc1 (centres undefined),inactive: -5.7%
8,CCOC(=O)c1ccc(NP(C)(=O)Oc2ccc(Cl)cc2)cc1 (centres undefined),inactive: 3.1%
9,CP(=O)(OC12CC3CC(CC(C3)C1)C2)OC12CC3CC(CC(C3)C1)C2,inactive: 7%
10,CCCCCCCCCCCCCCCC1C[N+](C)(C)CCOP(C)(=O)O1 (centres undefined),inactive: -45.9%
11,CP(=O)(Nc1ccc(Cl)cc1Cl)Oc1ccccc1 (centres undefined),inactive: 2.4%
12,CP(=O)(OCCOc1ccccc1)OCCOc1ccccc1,inactive: -6.8%
13,O=C1C(O)=C([N+](=O)[O-])C(=O)C(O)=C1[N+](=O)[O-],inactive: -12.8%
14,Cc1cc(C)cc(OP(C)(=O)Nc2cccc(C(F)(F)F)c2)c1 (centres undefined),inactive: 4.1%
15,COc1ccccc1OP(C)(=O)Nc1ccc(C)c(C)c1 (centres undefined),inactive: -6%
16,COc1ccc(OP(C)(=O)Nc2ccccc2Br)cc1 (centres undefined),inactive: -7.7%
17,Cc1c(NP(C)(=O)Oc2ccc(C(C)C)cc2)c(=O)n(-c2ccccc2)n1C (centres undefined),inactive: -6.1%
18,O=[N+]([O-])c1cc([N+](=O)[O-])c(Nc2ccccn2)c([N+](=O)[O-])c1,inactive: -4.9%
19,CP(=O)(Nc1ccccn1)Oc1ccccc1 (centres undefined),inactive: -16.1%
20,COc1ccccc1OP(C)(=O)Nc1ccc(C)cc1C (centres undefined),inactive: -7.4%
21,CCc1ccc(OP(C)(=O)O)cc1,inactive: -9.9%
22,COc1ccccc1OP(C)(=O)Nc1ccc(Br)cc1 (centres undefined),inactive: -3%
23,COc1ccc(OP(C)(=O)Nc2ccccn2)cc1 (centres undefined),inactive: -4.5%
24,CN(C)CCOC(=O)C(O)(c1ccccc1)C1CCCC1 (centres undefined),inactive: -6.2%
